This is a selection; strong and weak results do not stand in their true shares. Active and inactive are the calls of the source.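 Rule for the calls: active = membrane potential signal moved up or down beyond 5 SD of buffer control wells, in both duplicate plates, actives on both sides; inactive = the rest.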

In the assay the test system is Transient receptor potential cation channel subfamily C member 4 (mouse). The experiment in a line: off-target membrane potential effects via mouse TRPC4 – cell-based, HEK293 TRPC4/mu-opioid, membrane potential dye, selectivity assay for TRPC6 modulator project, confirmation (AID 488927). Conditions: membrane potential fluorescence, at 10 µM.
Regarding `O=C(OC1CN2CCC1CC2)C1c2ccccc2C=Cc2ccccc21` (configuration not stated), the percent of control is active: 19.5%.
In the case of `CN1CCN(CCOC(=O)C(O)(c2ccccc2)c2ccccc2)CC1`, the percent of control result was “inactive”.

(Values after PubChem BioAssay AID488927 (Johns Hopkins Ion Channel Center, 2010).)
